Data on 1 substance can be found in patent US20240309099A1.

A word on the Kd: it is the concentration at which binding is half-saturated. Low values mean tighter binding, high ones weaker binding. The koff is a measure of how fast the partners let go of each other. High values mean a short-lived complex, low ones a long-lived complex. One may read the kon as the second-order rate constant of association.

The assay addresses human HER3 (purchased from Acro Bio) (human) (UniProt P21860). As to the kind of experiment: BLI (Octet384), antibody captured on AHC tips, HER3 (Acro Bio) 0-100 nM in solution, global 1:1 fit.

As for “SI-1X24 (bispecific antibody; other documents disagree on this pair)”, the equilibrium dissociation constant (Kd) was found to be 106 nM, the Response is 0.372, the koff is 0.0321 s⁻¹ and the kon was found to be 303000 M⁻¹ s⁻¹.
